Data reported in PMC9054876, “Population pharmacokinetic analysis of tepotinib, an oral MET kinase inhibitor, including data from the VISION study” (Cancer Chemotherapy and Pharmacology, 2022).

Test: Population PK model of tepotinib (plasma concentrations, 12 clinical studies)
Description: This step included food status, formulation, and oral dose level.
In the second step, the remaining covariates were further evaluated, including demographics (age, body weight, race, and sex), patient characteristics (disease status, i.e., patient or healthy participant, tumor type, National Cancer Institute Organ Dysfunction Working Group [NCI-ODWG] classification of liver impairment, and baseline tumor burden), laboratory values (serum albumin, total bilirubin, alkaline phosphatase, international normalized ratio, and total protein), and co-medications (opioid analgesics and gefitinib).
SCM was applied in the structural covariate model building step, followed by an adaptive scope reduction (ASR) SCM in the following covariate searching step to reduce run times. For the SCM procedures, the forward selection p value was set to 0.01, and the backward elimination p value to 0.001. The ASR threshold p value was set to the same as the forward p value of 0.01.
Continuous covariate relationships were coded as power models (Formula 1), and categorical covariates were coded as a fractional difference to the most common category (Formula 2). […]

## CN1CCC(COc2cnc(-c3cccc(Cn4nc(-c5cccc(C#N)c5)ccc4=O)c3)nc2)CC1 [Tepotinib]
Fractional difference
  NCI-ODG class > 0 covariate (liver dysfunction) on D1: –0.332
human, in vivo
  IIV of relative bioavailability: 28.3%
